# AlphaSeq binding of Ab-95 light chain variants to a spike HR2 peptide

From the AlphaSeq antibody data of Engelhart et al. 2022 (doi:10.1038/s41597-022-01779-4), copy in the FLAb collection.

All variants were tested on one target, the spike HR2 peptide PDVDLGDISGINAS (SARS-CoV-2).

Parent scFv Ab-95: VH joined to VL by three GGGGS repeats. Changes lie in the light chain CDRs alone.
VH: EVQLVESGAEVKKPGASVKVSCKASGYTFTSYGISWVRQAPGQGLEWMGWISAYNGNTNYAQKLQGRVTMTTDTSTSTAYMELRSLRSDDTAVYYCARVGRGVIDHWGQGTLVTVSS
VL: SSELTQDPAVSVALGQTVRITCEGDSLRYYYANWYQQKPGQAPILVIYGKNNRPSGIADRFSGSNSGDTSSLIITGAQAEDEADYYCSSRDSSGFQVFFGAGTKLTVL

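The parent was found by panning a naive human phage display library on the peptide. The library (AAYL52) carries one to three amino acid substitutions per variant, with no insertions or deletions. The assay is AlphaSeq: two haploid yeast populations carry antibody and antigen on their surface. Pairs that bind mate more often; barcode pairs of the diploids are counted by sequencing. The ratio of observed to expected reads was calibrated, replicate by replicate, on BCL2-family standards whose Kd was known from biolayer interferometry. The assay was run in three technical replicates.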

Changes read parent residue, position, new residue, counted from the first residue of the VL shown.
Values are log10 of the apparent Kd in nM; lower means stronger binding.
The mean shown is taken over the replicates in which the pair was detected.
"n.d." marks a missing value. The strain was present, yet no cells mated with the target were sequenced in that replicate, which points to weak or no binding.
Parent in this assay: reference entry 2.31, copy in this library 2.25.

| # | changes | log10 Kd, replicates | mean, log10 nM | signal with controls |
|---|---|---|---|---|
| 1 | N33Q/S89A/G94S | 5.63 / 5.49 / 4.42 | 5.18 | 6/9 (4.03) |
| 2 | N33F/N52P/R53D | 4.21 / 3.85 / n.d. | 4.03 | 4/9 (3.93) |
| 3 | N33M/S88T/F98T | n.d. / 4.47 / n.d. | 4.47 | 5/9 (4.05) |
| 4 | S89W/S93I/F95G | 2.92 / n.d. / 3.51 | 3.21 | 2/9 (3.96) |
| 5 | G24I/L27A/G49M | 5.82 / n.d. / n.d. | 5.82 | 3/9 (4.10) |
| 6 | D91R/G94V/F98Q | 3.66 / 3.56 / 4.19 | 3.80 | 3/9 (3.77) |
| 7 | R53Q/S92P/F98P | 3.26 / 4.34 / n.d. | 3.80 | 6/9 (4.49) |
| 8 | D25R/L27N/R53S | n.d. / 4.20 / 3.13 | 3.67 | 4/9 (3.39) |
| 9 | Y29M/P54L/S89N | 4.19 / 2.71 / n.d. | 3.45 | 1/9 (3.88) |
| 10 | L27S/Y29P/S93V | 3.20 / 2.88 / 2.23 | 2.77 | 5/9 (3.85) |
| 11 | G24C/P54W/F98D | 5.05 / 4.89 / n.d. | 4.97 | 5/9 (4.61) |
| 12 | N33Y/R53P/Q96D | n.d. / n.d. / n.d. | n.d. | 1/9 (2.94) |
| 13 | N33Q/R90V/G94T | 3.53 / n.d. / n.d. | 3.53 | 3/9 (5.11) |
| 14 | E23G/Y29G/F95R | 1.40 / 1.34 / 0.89 | 1.21 | 7/9 (4.09) |
| 15 | G24Y/S92H/F98D | n.d. / n.d. / n.d. | n.d. | 0/9 |
| 16 | N51K/R90H | n.d. / 3.88 / 3.51 | 3.70 | 3/9 (3.61) |
| 17 | Y31T/A32E/N51E | 4.16 / n.d. / n.d. | 4.16 | 0/9 |
| 18 | S88W/S92A/F95G | 3.20 / 2.42 / 2.13 | 2.58 | 1/9 (3.64) |
| 19 | G24Y/Y31R | 3.36 / 4.60 / 2.62 | 3.53 | 3/9 (4.13) |
| 20 | S26K/N51T/S88F | 4.29 / n.d. / n.d. | 4.29 | 1/9 (2.86) |
| 21 | N33D/S92K/S93H | 3.43 / 2.70 / 2.95 | 3.02 | 2/9 (4.24) |
| 22 | L27F/R90G/S93D | n.d. / 4.42 / n.d. | 4.42 | 3/9 (4.51) |
| 23 | D25L/Y31G/K50S | 2.01 / 1.58 / 1.42 | 1.67 | 1/9 (4.29) |
| 24 | P54R/S93L/F95E | n.d. / n.d. / 3.79 | 3.79 | 2/9 (4.15) |
| 25 | N51L/R53G/F98W | n.d. / n.d. / n.d. | n.d. | 0/9 |
| 26 | L27M/R28W/Y31C | 3.17 / 3.28 / 2.91 | 3.12 | 2/9 (3.75) |
| 27 | A32Q/R90E/G94D | 4.47 / n.d. / 4.44 | 4.46 | 2/9 (3.96) |
| 28 | D25S/S55N/G94M | 2.70 / 2.29 / 2.99 | 2.66 | 6/9 (3.81) |
| 29 | S26T/Y29N/Y30E | 1.51 / 1.33 / 1.14 | 1.33 | 7/9 (4.41) |
| 30 | S88C/S92D/F98E | 3.22 / 3.35 / 3.22 | 3.27 | 4/9 (3.90) |
| 31 | E23D/N33V/R53H | 3.01 / 3.38 / n.d. | 3.19 | 1/9 (3.71) |
| 32 | A32P/N52H/S88C | 2.72 / 3.00 / 2.68 | 2.80 | 2/9 (3.45) |

Nonspecific signal, from three strains lacking the peptide, appeared in 28% of pairings of library AAYL52, centred on 3.91 (5% of these signals below 2.90); values are not corrected for it. Also given: how often the same scFv was detected with the empty control strains, with their mean in brackets.